Laboratory results reported in US20130295185A1, “COMPOUNDS AND METHODS FOR INDUCING APOPTOSIS IN CANCER CELLS USING A BH3 ALPHA-HELICAL MIMETIC” (H. Lee Moffitt Cancer Center and Research Institute, Inc., priority 2011, published 2013).

What was measured:
[1] = system: Bax; experiment: Bax conformational change (Bax 6A7 immunoprecipitation) in A549 cells; details: A549, serum-starved, 1 h; tested form: diammonium salt (as drawn, CO2NH4)
Description: FIG. 4 is a series of images illustrating BH3-M6 inhibits the interaction between Bcl-XL, Bcl-2, and Mcl-1 with Bim, Bak or Bax in intact cells. (A) Co-immunoprecipitation from HEK293T cells. HEK293T cells were co-transfected with HA-Bcl-XL and Flag-BimEL for 18 h. Cells were exposed to 0, 25, 50, and 100 μM of BH3-M6 or 100 μM of TPC for 2 h at 37° C., lysed and subjected to immunoprecipitation with anti-FLAG-M2 beads. The resulting immune complexes, as well as total lysates, were analyzed by Western blotting with the indicated antibodies. (B) Co-immunoprecipitation from MDA-MB-468 cells expressing Bcl-XL-IRES-BimEL, Bcl-2-IRES-BimEL, and Mcl-1-IRES-BimEL. […] The resulting immune complexes were analyzed by Western blotting with Bim, Bcl-XL, Bcl-2, and Mcl-1 antibodies. […] The resulting immune complexes were analyzed by Western blotting with the indicated antibodies. […] The resulting immune complexes were analyzed by Western blotting with the antibodies indicated on the right. […]
Next the inventors determined whether BH3-M6 could disrupt these interactions of the corresponding endogenous proteins. […] Finally, a mechanism by which freed Bax is believed to induce apoptosis is through a conformational change, which can be detected by a specific antibody. […]

[2] = system: A549 cells; experiment: MTT cell viability, A549 cells; details: A549, 72 h; tested form: diammonium salt (as drawn, CO2NH4)
Description: FIG. 5 is a series of images illustrating BH3-M6 induces apoptosis in a caspase-dependent manner. (A) BH3-M6 releases cytochrome c from mitochondria. Mitochondria from A549 cells were incubated at 37° C. with 0, 50 μM BH3-M6 or TPC for 60 min. Cytochrome c release was determined as described in Methods. B-D A549 cells were treated with the indicated BH3-M6 concentrations for up to 72 h and then processed for various assays as described in EXPERIMENTAL PROCEDURES. (B) BH3-M6 induces apoptosis after 48 h of exposure to BH3-M6, as shown by phase images of cells (left panel) or DAPI nuclear staining (right panel). The arrows point towards cells in the process of rounding. The images from phase and DAPI are from different experiments. […] (D) BH3-M6 decreases the viability of A549 cells in a dose-dependent manner as measured by MTT assay after 72 h treatment. […] Caspase-3/-7 activity was determined as described in EXPERIMENTAL PROCEDURES. […] Middle panel, PARP cleavage was measured by Western blotting. Lower panel, extent of apoptosis was measured by TUNEL assay.
(§1) Release of cytochrome c from isolated mitochondria was measured as described by Takahashi et al. (Takahashi, Y., Karbowski, M., Yamaguchi, H., Kazi, A., Wu, J., Sebti, S. M., Youle, R. J., and Wang, H. G. (2005) Mol Cell Biol 25, 9369-9382) Cell-free caspase-3/-7 activity and the extent of PARP cleavage was determined as described previously. […]

[3] = system: DoHH2 cells; experiment: Caspase-3/-7 activity, PARP cleavage and TUNEL apoptosis in DoHH2 cells; details: tested form: diammonium salt (as drawn, CO2NH4)
Description: FIG. 5 is a series of images illustrating BH3-M6 induces apoptosis in a caspase-dependent manner. (A) BH3-M6 releases cytochrome c from mitochondria. Mitochondria from A549 cells were incubated at 37° C. with 0, 50 μM BH3-M6 or TPC for 60 min. Cytochrome c release was determined as described in Methods. B-D A549 cells were treated with the indicated BH3-M6 concentrations for up to 72 h and then processed for various assays as described in EXPERIMENTAL PROCEDURES. (B) BH3-M6 induces apoptosis after 48 h of exposure to BH3-M6, as shown by phase images of cells (left panel) or DAPI nuclear staining (right panel). The arrows point towards cells in the process of rounding. The images from phase and DAPI are from different experiments. […] (C) BH3-M6 induces PARP cleavage after 48 h of drug treatment. (D) BH3-M6 decreases the viability of A549 cells in a dose-dependent manner as measured by MTT assay after 72 h treatment. Error bars indicate standard deviations of triplicates. (E) upper panel, Activation of caspase-3/-7 by BH3-M6 is blocked by a pan-caspase inhibitor. DoHH2 cells were pretreated with 50 μM Boc-D-FMK, a pan-caspase inhibitor, followed by a co-treatment with 50 μM BH3-M6 for 24 h. Caspase-3/-7 activity was determined as described in EXPERIMENTAL PROCEDURES. Results shown represent one of two independent experiments in triplicate. Error bars indicate standard deviations of triplicates. Middle panel, PARP cleavage was measured by Western blotting. Lower panel, extent of apoptosis was measured by TUNEL assay.
as §1
Next, the inventors determined whether BH3-M6 requires caspase activity to induce apoptosis. […]

## CC(C)Cc1cc(-c2ccc(-c3ccc(CCC(=O)O)cc3CC(C)C)cc2Cc2ccccc2)ccc1OCC(=O)O
[1]
  levels of Bax in its pro-apoptotic conformation: increased
[2]
  cell viability as measured by MTT assay: inhibited cell viability
[3]; DoHH2, 50 μM, 24 h
  induced apoptosis (TUNEL): 7.5 fold
  induced caspase-3/-7 activity: 5 fold
[3]; DoHH2, pretreated with 50 μM Boc-D-FMK
  caspase-3/-7 activity, PARP cleavage and apoptosis in presence of a pan-caspase inhibitor: abrogated
